How the values were obtained:
nociceptin receptor ORL1 [1] = target: T1, nociceptin receptor ORL1 (Homo sapiens, UniProt P41146); test: Nociceptin receptor binding assay ([125I]Tyr14-Nociceptin, CHO/ORL1 membranes, SPA); conditions: read-out: IC50 of [125I]Tyr14-Nociceptin binding to the nociceptin receptor; CHO/ORL1 membrane, 50 pM [125I]Tyr14-Nociceptin, 37° C., 60 minutes
nociceptin receptor ORL1 [2] = target: T1, nociceptin receptor ORL1; test: Nociceptin-elicited G protein activation (GTPγ[35S] binding, CHO/ORL1 membranes); conditions: read-out: EC50 of G protein activation (GTPγ[35S] binding); CHO/ORL1 membrane, 25° C., 150 minutes; compared with the increase caused by 1 μM nociceptin

Structure (SMILES): CC(C)(C)CC(C)(C)N1CCC2(CC1)NC(=O)CN2c1ccccc1
- IC50 (nociceptin receptor ORL1 [1]): 0.27 nM
- EC50 (nociceptin receptor ORL1 [2]): 3.5 nM

Structure (SMILES): CC(C)(C)CC(C)(C)N1CCC2(CC1)NC(=O)CN2c1cccc(F)c1
- IC50 (nociceptin receptor ORL1 [1]): 0.2 nM
- EC50 (nociceptin receptor ORL1 [2]): 1.2 nM

Structure (SMILES): CCCCC(CC)N1CCC2(CC1)NC(=O)CN2c1ccccc1 (centres unmarked)
- IC50 (nociceptin receptor ORL1 [1]): 2.2 nM
- EC50 (nociceptin receptor ORL1 [2]): 89 nM

Structure (SMILES): O=C1CN(c2ccccc2)C2(CCN(C3CCC4CCCCC4C3)CC2)N1 (centres unmarked)
- IC50 (nociceptin receptor ORL1 [1]): 0.35 nM
- EC50 (nociceptin receptor ORL1 [2]): 3.8 nM

From patent US7557117B2, “4-oxoimidazolidine-2-spiropiperidine derivatives” (dated 2009)
